Rows were chosen to be rich in hits. Some 2.2% of all compounds tested hit in one or more screens of this group.
miR-21 reporter – raises the signal of a miR-21 reporter | HeLa miR-21 FLuc reporter, luciferase, 48 h | 340,000 tested, under 10 active | Potency, µM (titrated, usually from 38.3 µM), inactives show at the highest dose reporter change, positive = more light; active = well fitted rising curve with a large enough effect; inconclusive = small, poorly fitted or top-dose-only effect; inactive = no such curve, though single readings can be large or run the other way;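 further: % of control where 0% means no effect; miR-21 action dims this reporter so a rising signal means less miR-21 action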
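Luminescence from a firefly luciferase reporter carrying a miR-21 binding site downstream, stably expressed under a CMV promoter in HeLa cells that make miR-21 endogenously, reports miRNA modulation after 48 h compound exposure up to approximately 40uM final.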
PI4K2A inh – blocks human PI4K2A kinase activity. purified PI4K2A, ADP-Glo luminescence, 1 h; stronger effect = lower value. 0.13% of 420,000 active. Q9BTU6. activity change, negative = inhibition, % at 76.9 µM; in the data active means activity change below about -50%; inconclusive means mostly about -30% to -49%;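 further: -100% = wells without enzyme as full effect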
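PI4K2A activity was measured by ADP-Glo luminescence: enzyme (4 ug/mL stock) and phosphatidylinositol (1.2 mM stock) in Tris pH 7.5/MgCl2/EGTA/Triton X-100 buffer were reacted with ATP (300 microM stock) for one hour at ambient temperature.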
GALK inh – galactokinase (human) inhibition. 0.007% of 270,000 active. P51570. Purified GALK, Kinase-Glo residual ATP luminescence. Potency, µM (titrated, usually from 57.5 µM), without a hit: at the top dose activity change, negative = inhibition, actives largely listed as inhibitors. AID 1868; further: potency means the concentration at half of the fitted maximal effect; on the % scale 0 is the no-effect control and ±100 the full control effect
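Luminescence from leftover ATP (Ultra-Glo luciferase/luciferin) served as read-out after a 1 h room-temperature reaction of 5 nM GALK with 35 uM ATP and 100 uM galactose.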
Nrf2 ARE act – activates Nrf2 signaling. AREc32 ARE-luciferase reporter (MCF7-derived line), luminescence, 24 h. Potency, µM (series often up to 46.1 µM), without a hit: at the highest dose activation, most hits filed as activators. 0.31% of 410,000 active. AID 624171; further: potency means the concentration at half of the fitted maximal effect; % of control where 0% means no effect; nearly all actives have a fitted effect of over 65% in size
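ARE-driven firefly luciferase activity in AREc32 cells measured after a 24 hr compound exposure at 37 deg C, using Steady-Glo reagent and a 30 min room-temperature hold.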
Nrf2 block – Nrf2 pathway inhibition | A549 ARE-Fluc reporter, luciferase luminescence, 18-24 h | Potency, µM (doses to about 46 µM), inactives show top-dose activity change, negative = inhibition, hits mostly inhibitors | 2.1% of 360,000 active | AID 504444; further: potency means the concentration at half of the fitted maximal effect; on the % scale 0 is the no-effect control and ±100 the full control effect; nearly all actives have a fitted effect of over 60% in size
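Cells were seeded and rested 2 h, then exposed to compounds for 18-24 h. CellTiter-Fluor was read first as a viability measure. BugLite was added 15 min before the final luminescent read of ARE-luciferase activity in A549 cells.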
A549 tox – A549 cytotoxicity, counter-screen for Nrf2 inhibitors. A549 ARE-Fluc cells, CellTiter-Fluor viability, 18-24 h. Potency, µM (doses to about 46 µM), without a hit: top-dose activity change, negative = cytotoxicity, usual class: inhibitors. 0.16% of 390,000 active. AID 504648; further: potency means the concentration at half of the fitted maximal effect; on the % scale 0 is the no-effect control and ±100 the full control effect
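A549 ARE-Fluc cells in 5% FBS OPTI-MEM, 5000 cells/well, rested 2 h then exposed to compounds in concentration-response for 18-24 h at 37 °C. Viability by CellTiter-Fluor fluorescence (Ex 405/Em 525) after 30 min; luciferase luminescence (BugLite, 15 min, RT) read afterwards.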
* marks the source's active call; other numbers are inactive results; ? = inconclusive; . = not tested or not shown; ! = not confirmed by another sample. Unless noted, the call rests on the fitted dose curve; in most records, active means well fitted curve in the direction sought with a large enough effect; inconclusive means small, poorly fitted or top-dose-only effect, or another doubt; inactive means no such curve, though single readings can be large; an effect the other way counts as inactive or inconclusive.

SMILES	miR-21 reporter	PI4K2A inh	GALK inh	Nrf2 ARE act	Nrf2 block	A549 tox
Fc1cccc(/C=N/Nc2ccccn2)c1	-46%	-8	12%	7.1µM*	?	1%
c1ccc(Cn2c(SCC3CCCCC3)nnc2-c2cccnc2)cc1	.	1	.	.	.	.
CCCCC(O)C(=O)Nc1cc(C(F)(F)F)ccc1Cl (stereo not drawn)	.	.	.	.	14%	2%
COc1ccc(C#Cc2c[nH]c(=O)c3cncnc23)cc1OC	.	.	.	.	23%	-4%
COc1ccc(-c2noc(N3CCC(C(=O)Nc4ccccc4Cl)CC3)n2)cc1	-6%	3	.	-2%	-7%	2%
COc1ccc(-c2noc(N3CCC(C(=O)NC(C)c4ccccc4)CC3)n2)cc1 (stereo not drawn)	18%	-3	.	0%	23µM*	-20%
Cc1nn(-c2ccccc2)c2sc(C(=O)NC3CCCC3)cc12	.	-1	.	.	.	.
C=CCSC1=N/C(=C\C=C\c2ccco2)C(=O)S1	-5%	-17	7%	13µM*	-2%	-19%
c1ccc(Cn2ccc3ccc(-c4ccc5ccn(Cc6cccc(-c7cccs7)c6)c5c4)cc32)cc1	.	0	.	.	.	.
CCN(CC)S(=O)(=O)c1cc(NC(=O)C2CC(=O)N(Cc3ccccc3)C2)ccc1Cl (stereo not drawn)	.	-2	.	0%	18µM*	-11%
Cc1ccc(NC(=O)C2CC(=O)N(Cc3ccccc3)C2)cc1S(=O)(=O)N1CCCCCC1 (stereo not drawn)	26%	-3	0%	0%	?	-14%
CCN(CC)S(=O)(=O)c1cc(NC(=O)C2CCN(c3ncnc4sc(C)c(C)c34)CC2)ccc1Cl	.	2	.	3%	12µM*	?
Cc1sc2ncnc(N3CCC(C(=O)Nc4cc(Cl)ccc4Cl)CC3)c2c1C	.	0	.	-1%	?	-13%
Cc1sc2ncnc(N3CCC(C(=O)Nc4ccc(S(N)(=O)=O)cc4)CC3)c2c1C	.	1	.	0%	?	10%
Cc1ccc(NC(=O)C2CCN(c3ncnc4sc(C)c(C)c34)CC2)cc1S(=O)(=O)N(C)C	.	-1	.	0%	23µM*	-16%

Part of the list above, set out differently.
Results follow in this order: miR-21 reporter	PI4K2A inh	GALK inh	Nrf2 ARE act	Nrf2 block	A549 tox
Fc1cccc(/C=N/Nc2ccccn2)c1
 : -46%	-8	12%	7.1µM*	?	1%
c1ccc(Cn2c(SCC3CCCCC3)nnc2-c2cccnc2)cc1
 : .	1	.	.	.	.

Ordered by value in PI4K2A inh (highest first): three of the compounds above
SMILES,PI4K2A inh
Cc1sc2ncnc(N3CCC(C(=O)Nc4cc(Cl)ccc4Cl)CC3)c2c1C,0
Cc1ccc(NC(=O)C2CCN(c3ncnc4sc(C)c(C)c34)CC2)cc1S(=O)(=O)N(C)C,-1
Fc1cccc(/C=N/Nc2ccccn2)c1,-8

Further records:
SMILES	miR-21 reporter	PI4K2A inh	GALK inh	Nrf2 ARE act	Nrf2 block	A549 tox
Cc1ccccc1CN1CCCCC(NC(=O)c2ccc(N(C)C)cc2)C1=O (stereo not drawn)	.	-1	.	.	.	.
O=C(Cn1cc(CNC(=O)c2ccccc2)nn1)Nc1cc(C(F)(F)F)ccc1Cl	.	.	.	.	8%	0%
CCOc1ccc(CCNC(=O)c2ccc(Cn3c(=O)c4cccn4c4cccnc43)cc2)cc1	-1%	2	.	-1%	12µM*	?
CCc1ccc(NC(=O)Cn2c(=O)c3cccn3c3ccccc32)cc1	-16%	-6	1%	12%	23µM*!	4%
CCOc1ccc(CNC(=O)Cn2c(=O)c3cccn3c3ccccc32)cc1	-2%	0	4%	0%	16µM*	-14%
CCOC(=O)c1cccc(NC(=O)Cn2c(=O)c3cccn3c3ccccc32)c1	-8%	-5	.	7%	12µM*	0%
CCOC(=O)c1ccc(NC(=O)CCCn2c(=O)c3cccn3c3ccccc32)cc1	0%	-3	.	-1%	4%	-2%
CCc1ccc(NC(=O)CCn2c(=O)c3cccn3c3ccccc32)cc1	17%	0	-2%	0%	?	-5%
O=S(=O)(CC1NCc2cc(F)ccc21)NCCc1ccccc1 (stereo not drawn)	.	-4	.	.	.	.
O=[N+]([O-])c1ccc(Sc2cc[n+]([O-])c3ccccc23)c([N+](=O)[O-])c1	-4%	4	-1%	?	16µM*	?
O=c1[nH]c(Sc2ccc([N+](=O)[O-])cc2[N+](=O)[O-])nc2ccccc12	.	32	.	?	-13%	-17%
COc1ccc(-c2ccc(C)cc2)cc1C1C2C=CCCC2(C)C(=O)N1Cc1ccccc1 (stereo not drawn)	.	.	.	.	-24%	-2%

Source: PubChem BioAssay
